Tested on: chicken red blood cells
Experiment: Hemolytic test of QS21 adsorbed on composite

QS21
Delta DO (12.5 μg QS21/ml): 1.756 | Delta DO (25 μg QS21/ml): 1.811 | Delta DO (50 μg QS21/ml): 1.806 | Delta DO (100 μg QS21/ml): 1.811

From patent US20160235839A1, “CALCIUM FLUORIDE COMPOSITIONS” (priority 2013, published 2016)
